Assay results taken from patent publication US6458758B1, “Compositions and methods utilizing nitroxides in combination with biocompatible macromolecules” (Synzyme Technologies, Inc., priority 1993, dated 2002).
Entries after “also recorded” stand apart in the source; their conditions may differ.

What was measured:
rats = assay: Transient MCA suture occlusion (2 h) and 22 h reperfusion in rats; type: in vivo, rat
Protocol: As a model of prophylactic therapy in the surgical/perioperative stroke setting, PNA was administered to mice both before MCA occlusion and after reperfusion. Because albumin alone may provide modest protection against cerebral ischemia, PNA was tested with both HSA and saline as controls.
Rats were subjected to 2 hours of suture occlusion of the MCA, followed by 22 hours of reperfusion. Drug or saline was administered IV in a total dose of 1% of body weight (v/w), divided as follows: ½ the total dose was given 5 minutes before MCA occlusion; ¼ of the total dose was given five minutes before the suture was removed to allow reperfusion of the MCA; and the final ¼ of the total dose was given 2 hours after reperfusion. Brain sections were stained with TTC.

C57 mice = assay: 30-day survival of C57 mice after 10 Gray irradiation; type: in vivo; settings: PNA 0.5 ml/mouse alone
[1] = Plasma levels of TPL with or without PNA in C57 mice (EPR); settings: PNA 0.5 ml/mouse, 20 g/dl albumin, 42 moles TPL per mole albumin
[2] = In vivo EPR of mouse skin: intradermal PNA and intravenous ^15N-TPL; settings: 5 minutes after intradermal PNA (100 μl, 10 g/dl) at the belly
Protocol: Thirty minutes later the spectrum in (C) was recorded.
The intensity of the low field ^15N-TPL peak is plotted against time. […]. The ^15N-TPL signal rose after injection, then fell sharply within 5 minutes, reflecting bioreduction.
FIGS. 42A and 42B show the pharmacokinetics of intravenous ^15N-TPL (1% v/w) measured at a patch of skin on the abdomen of the mouse. (A) The low field peak intensity rose and fell and fall within 5 minutes after the injection of ^15N-TPL.
A custom-built bridged loop-gap surface resonator, absorption microwave bridge was used for in vivo EPR spectroscopy at 1.25 GHz (L-band) in the mouse. […] The anesthetized mouse was placed in a ‘sandwich’ of two templates which allowed it to be placed on the loop-gap surface resonator, absorption microwave bridge in either the supine position, for spectroscopy of the back of the head, or in the prone position for spectroscopy of the abdomen. A tail vein cannula was used for intravenous injection of ^15N-TEMPOL; this injection site was remote from the resonator.
The spectrum was made 1 minute after ^15N-TPL was injected via the tail vein. […] FIG. 40B was recorded at approximately ⅕ of the instrument gain used in FIG. 40A in order to accommodate the ^15N-TPL signal.

rat brain = assay: Diffusion-weighted MRI of rat brain during MCA occlusion and reperfusion; type: in vivo
From the text: In addition, the protection offered by PNA against reperfusion injury is indicated by the rapid disappearance of DWI hyperintensity following reperfusion.
In stroke, hyperintensity on DWI is thought to be a real-time indicator of the course of cerebral damage during ischemia. Perfusion-weighted imaging (PWI) was used in this experiment to confirm the occlusion and reperfusion of the MCA (images not shown). […] For comparison, in control images (not shown) a distinct DWI image typically appears within 5-10 minutes of MCA occlusion. […] For comparison, control images typically show progression of the DWI image after reperfusion, reflecting reperfusion injury. Rows E and F show images made, respectively, 1 hour and 2 hours post-reperfusion, confirming the absence of a DWI image.

[3] = 0.2 ml PNA iv two hours after TEMPOL injection, mouse
[4] = system: leukocyte rolling and adhesion to endothelial cells; assay: Cigarette smoke induced leukocyte rolling, adhesion and aggregate formation, dorsal skinfold chamber; type: in vivo, Syrian Golden hamsters
From the text: The interactions of leukocytes with endothelial cells and platelets are an indicator of the microcirculatory response to several adverse physiological conditions, ranging from localized and systemic ischemia/reperfusion injury, rejection of organ grafts, and the response to the organism to various oxidizing novae. See also Lehr et al., PNAS, […]. The mediator role of reactive oxygen species has been documented in many in vitro and in vivo models and, as a consequence, antioxidants and radical scavengers have been applied to counteract leukocyte activation, aggregation, and adhesion to endothelium and the subsequent microcirculatory dysfunction.

[5] = total dose 1% of body weight iv, divided

Question: What does the source list for PNA?
Answer: grossly visible infarction in stained coronal sections (rats; rat, in vivo): no grossly visible infarction; % infarction (rats; [5]): approximately 2±36%; mean infarct volume (rats; [5]): 18±22 mm^3; survival outcome (C57 mice): all mice die on or about day 15; also recorded: all ten mice died on day 15; enhancement of plasma level of TPL in the presence of PNA [1]: greater than tenfold; reoxidation of ^15N-TPH in skin [2]: essentially complete; time after MCA occlusion at which DWI hyperintensity begins to appear (rat brain; PNA present before ischemia, 1.5-hour occlusion): 30 min; progression of ischemic injury in the brain (DWI) (rat brain; PNA present before the onset of ischemia): substantially slowing the progression of ischemic injury; histology 24 hours post-MCA occlusion (rat brain; rat, in vivo): small infarct in the basal ganglia, and no cortical infarct; persistence of regenerated TEMPOL signal [3]: more than two hours; time to reappearance of TEMPOL signal [3]: ≤ 4 min; aggregate formation ([4]; 15 MINUTES): 0.9 ± 0.7 /30 sec; arteriolar rolling ([4]; 15 MINUTES): 0.0 ± 0.0 /mm; arteriolar sticking ([4]; 15 MINUTES): 0.0 ± 0.0 /mm^2; venular rolling ([4]; 15 MINUTES): 5.8 ± 0.8%; venular sticking ([4]; 15 MINUTES): 0.0 ± 0.0 /mm^2; aggregate formation ([4]; 60 MINUTES): 1.2 ± 0.8 /30 sec; arteriolar rolling ([4]; 60 MINUTES): 0.0 ± 0.0 /mm; arteriolar sticking ([4]; 60 MINUTES): 0.0 ± 0.0 /mm^2; venular rolling ([4]; 60 MINUTES): 6.3 ± 1.8%; venular sticking ([4]; 60 MINUTES): 0.0 ± 0.0 /mm^2; aggregate formation ([4]; BASELINE): 0.4 ± 0.5 /30 sec; arteriolar rolling ([4]; BASELINE): 0.0 /mm; arteriolar sticking ([4]; BASELINE): 0.0 /mm^2; venular rolling ([4]; BASELINE): 5.2 ± 0.8%; venular sticking ([4]; BASELINE): 0.0 ± 0.0 /mm^2; leukocyte activation ([4]; cigarette smoke, compared with saline-treated controls): inhibited activation
